US20150315211A1, “SMALL MOLECULES FOR THE MODULATION OF MCL-1 AND METHODS OF MODULATING CELL DEATH, CELL DIVISION, CELL DIFFERENTIATION AND METHODS OF TREATING DISORDERS” (priority 2010, published 2015)

Sequences of proteins named here, by UniProt entry; tags and fusion partners are left off. Residues count along the entry.
UniProt Q07817, 1-212 limits assumed, stated change not applied: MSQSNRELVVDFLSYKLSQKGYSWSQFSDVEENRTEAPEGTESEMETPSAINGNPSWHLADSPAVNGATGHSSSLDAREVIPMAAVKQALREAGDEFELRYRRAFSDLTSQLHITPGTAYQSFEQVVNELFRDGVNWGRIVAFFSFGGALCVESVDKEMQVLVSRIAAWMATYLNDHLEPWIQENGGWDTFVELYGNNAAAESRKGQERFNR
UniProt Q07820, 172-320 limits assumed, stated change not applied: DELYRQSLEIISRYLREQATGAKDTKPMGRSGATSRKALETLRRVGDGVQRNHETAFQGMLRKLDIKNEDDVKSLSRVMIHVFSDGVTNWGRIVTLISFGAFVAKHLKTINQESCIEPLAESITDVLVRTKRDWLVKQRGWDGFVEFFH

Key:
[1] = biological target: BCL-XLΔC (Homo sapiens, UniProt Q07817); assay: High-throughput competitive FP binding screen, FITC-BAD BH3/BCL-XLΔC interaction
[2] = biological target: MCL-1ΔNΔC (Homo sapiens, UniProt Q07820); assay: High-throughput competitive FP binding screen, FITC-MCL-1 SAHB/MCL-1ΔNΔC interaction; parameters: the C-terminal alpha-helix was deleted from each of these constructs; GST (N, cleaved yes); made in house
Further: test concentration or dose not given here.

CC1=C(CC/C(C)=C/CCC2C=CC(C3=CC(=O)OC3O)OC2O)C(C)(C)CCC1 (stereo not shown) [drawing 17]
BCL-XL % Bound [1]: 106.8% | MCL-1% Bound [2]: 35.01%

CC1=C(CC/C(C)=C/CCC2C=CC(C3=CC(=O)OC3O)OC2O)C(C)(C)CCC1 (stereo not shown) [drawing 207]
BCL-XL % Bound [1]: 106.8% | MCL-1% Bound [2]: 35.01%
